## Ab-91 heavy chain CDR variants: yeast mating affinities

Data: MIT Lincoln Laboratory AlphaSeq set, Engelhart et al. 2022, doi:10.1038/s41597-022-01779-4, as distributed in FLAb.

The target is the same throughout: PDVDLGDISGINAS, from the HR2 region of SARS-CoV-2 spike.

Ab-91 is the parent antibody, in scFv form: VL, then the linker GGGGSGGGGSGGGGS, then VH. The light chain is unchanged in all variants.
VL: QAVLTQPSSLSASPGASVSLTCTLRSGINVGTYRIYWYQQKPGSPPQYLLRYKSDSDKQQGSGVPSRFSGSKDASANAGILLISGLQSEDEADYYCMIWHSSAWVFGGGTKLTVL
VH: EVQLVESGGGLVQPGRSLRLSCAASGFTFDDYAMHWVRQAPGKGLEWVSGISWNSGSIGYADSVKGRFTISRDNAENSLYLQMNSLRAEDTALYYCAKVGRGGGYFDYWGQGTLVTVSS

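Phage display of a naive human antibody library on the peptide gave the parent. AAYL51 was designed without a model: most single CDR substitutions and a random sample of double and triple ones. The scFvs were displayed on barcoded MATa yeast, the peptide on MATalpha yeast. Binding brings cells together so that they mate, and sequencing counts the barcode pairs among the diploids. The ratio of observed to expected reads was calibrated, replicate by replicate, on BCL2-family standards whose Kd was known from biolayer interferometry. Mating was done three times.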

Variants are written as CDR1, CDR2 and CDR3 of the heavy chain (limits as in the source). Parent: GFTFDDYAMH, GISWNSGSIGYADSVK, VGRGGGYFDY.
Values are log10 of the apparent Kd in nM; lower means stronger binding.
Replicates are averaged; those with no signal do not enter the mean.
An entry "nd" has no value in the source: the pair was not observed among the diploids in that replicate. This suggests poor binding but is not conclusive.
In this assay the parent's reference entry averaged 1.86; its copy inside this library read 0.88.
Nonspecific signal, from three strains lacking the peptide, appeared in 21% of pairings of library AAYL51, centred on 4.54 (5% of these signals below 3.26); values are not corrected for it. The control count says in how many pairings with the empty strains this scFv gave a signal, with their mean in brackets.

| CDR-H1 | CDR-H2 | CDR-H3 | log10 Kd (nM) by replicate | mean log10 Kd (nM) | control signals |
|---|---|---|---|---|---|
| GFTFDDYAGH | GISWNSGSIGYADSVK | VGRGGMYFMY | nd / nd / nd | nd | 0/9 |
| GFTFDDYFMH | GISWNSVSIGYADSVK | VGREGGYFDY | nd / nd / nd | nd | 0/9 |
| GFTSDDLAMH | GIWWNSGSIGYADSVK | VGRGGGYFDY | 4.67 / nd / nd | 4.67 | 3/9 (4.31) |
| GFTFDDYAMH | GISWNSGSIGYCNSVK | LGRGGGYFDY | 5.14 / 4.16 / 5.32 | 4.87 | 6/9 (5.20) |
| GFTFDDYETH | GISWNSGSIGYAKSVK | VGRGGGYFDY | nd / nd / nd | nd | 0/9 |
| DFTFDDYAMH | GIDWNSGSIGYNDSVK | VGRGGGYFDY | nd / 5.49 / 4.67 | 5.08 | 3/9 (4.91) |
| GFTFDDYLMH | GISWNSGSIGYADSVK | PGRGGGYFSY | nd / nd / nd | nd | 0/9 |
| GMTFDDFAMH | GISWNSGSIGYADSVL | VGRGGGYFDY | nd / nd / nd | nd | 0/9 |
| GCTFDDYAMH | GISWNSGSIGYADSVK | VGRMGGYFDD | nd / nd / nd | nd | 0/9 |
| GFTFDDYAMH | GISWNSGSIGYADSVK | VMRGGGYFDY | 1.70 / 1.82 / 1.55 | 1.69 | 2/9 (3.71) |
| GFTFDDYAMH | GISWNWGHIGYFDSVK | VGRGGGYFDY | 4.81 / nd / nd | 4.81 | 0/9 |
| GFTFDDYAMH | GISWNSGSIGYAYSVK | VGAGGGYFDY | 1.97 / 1.73 / 1.51 | 1.73 | 5/9 (4.46) |
| GFTFDDYFPH | GISWNSGSIGYADSVK | VGRGGEYFDY | nd / nd / nd | nd | 1/9 (5.01) |
| GFTFDDYAMH | GISWNSGSIGYADMVK | VIRGGGYFDY | 3.84 / nd / 4.28 | 4.06 | 2/9 (5.20) |
| GFVLDDYAMH | AISWNSGSIGYADSVK | VGRGGGYFDY | nd / nd / nd | nd | 3/9 (4.24) |
| MFTFDDYAMC | GISWNSGSIGYADSVI | VGRGGGYFDY | nd / nd / nd | nd | 2/9 (3.83) |
| GFQFDDYAMH | GISWNRGSIGMADSVK | VGRGGGYFDY | 4.33 / nd / nd | 4.33 | 1/9 (4.09) |
| GFTFCDYAMF | GISWNNGSIGYADSVK | VGRGGGYFDY | nd / nd / nd | nd | 0/9 |
| GFTHDDYRMH | GISWNSGSIGYADSVK | VGLGGGYFDY | 2.23 / 3.83 / 2.62 | 2.89 | 1/9 (2.36) |
| GFTFDDYAMH | GISWNTGSIGYADSVK | VGRGGGYFDK | 4.21 / 4.82 / nd | 4.52 | 3/9 (4.40) |
| GFTFDDYANN | GISWNSGSIGYADSHK | VGRGGGYFDY | nd / 5.43 / nd | 5.43 | 4/9 (4.78) |
| GFTFDDYAMH | GISWNSGKEGYADSVK | VGRGDGYFDY | nd / nd / nd | nd | 0/9 |
| GFTFDDYAMH | GMSWNYGSIGYADSGK | VGRGGGYFDY | 5.70 / nd / nd | 5.70 | 3/9 (4.95) |
| GFTFDDYAMH | GISWNMGSITYADSYK | VGRGGGYFDY | nd / nd / nd | nd | 0/9 |
| GFTFDDYAMH | GISWNSGSIQYADSVK | VGRGGTYPDY | nd / nd / nd | nd | 0/9 |
| GFTFDDYVMH | GLSWNSGSIGYADMVK | VGRGGGYFDY | 3.05 / 3.21 / 2.83 | 3.03 | 4/9 (5.04) |
| KFLFDDYAEH | GISWNSGSIGYADSVK | VGRGGGYFDY | 4.58 / 4.62 / 5.13 | 4.78 | 3/9 (4.91) |
| MFTFDDYAMH | GISWVPGSIGYADSVK | VGRGGGYFDY | nd / nd / 4.83 | 4.83 | 4/9 (5.08) |
| GFTFFDYAMH | GISWNLGSIGYADSVL | VGRGGGYFDY | 4.24 / nd / nd | 4.24 | 2/9 (3.65) |
| GFTFDDYAMH | GISWLSGSIGYADSSK | VGRGGGYFDY | nd / nd / nd | nd | 0/9 |
| GFTFDDYAMH | WITWNSGSIGYADSVK | VGRGGGYFHY | nd / nd / nd | nd | 0/9 |
| GFTFDDYAMH | GISWNPYSIGYADSVA | VGRGGGYFDY | nd / nd / nd | nd | 2/9 (3.16) |
| GFTFDDYAMH | GISWNSGSIGYADSPK | VWRGGGYFDY | nd / 6.01 / nd | 6.01 | 2/9 (4.08) |
| PFTFDDYAMH | GISWNSGSIGLADSVK | VGRGGGYFDY | nd / 5.96 / 4.87 | 5.41 | 4/9 (4.77) |
| GFTFDDYAMH | GISWNTGSIGFADSVK | VGRGGGYFDI | nd / nd / nd | nd | 0/9 |
| GFTFDDYLMH | GISWNSGSYGYADSVK | VGRGGGFFDY | 3.70 / nd / nd | 3.70 | 2/9 (4.61) |
| GFTFDDYAMH | GISWNSGSIGYAGSVK | VGRGGGYFCY | nd / 4.92 / nd | 4.92 | 3/9 (4.80) |
| GFTFVDYAMH | GTSWNSGSIGYADSVK | VSRGGGYFDY | nd / nd / 4.33 | 4.33 | 1/9 (3.50) |
| GFTFPDYAMH | GISWNSGSIGYFDSVK | VGRGGRYFDY | 2.55 / 2.67 / 2.22 | 2.48 | 0/9 |